Assays:
human GAL3 receptor = human GAL3 receptor (Homo sapiens, UniProt O60755); test: Radioligand binding at cloned human GAL3 receptor; details: Ki at hGAL3 divided by Ki at human GAL3
Experimental: The present invention provides for a method of determining the binding affinity of a GAL3 antagonist, wherein the GAL3 antagonist is dissolved in a “suitable solvent”. A “suitable solvent” means one which permits the measurement of binding affinity of the GAL3 antagonist to the human GAL3 receptor at concentrations less than 1 μM, preferably less than 100 nM. Examples of solvents include, but are not limited to, DMSO, ethanol, N,N-dimethylacetamide, or water. For indolones, the preferred solvent is 3% DMSO (final concentration in the assay). For pyrimidines, the preferred solvent is 1% ethanol/0.09% polypuronic acid F-127 (final concentration in the assay). […]
The binding properties of the pyrimidines of the present invention were evaluated at the cloned human galanin receptors, GAL1, GAL2, and GAL3, using protocols described herein.
The binding properties of the indolones of the present invention were evaluated at the cloned human galanin receptors, GAL1, GAL2, and GAL3, using protocols described herein. […]
Membranes were harvested from stably transfected LM(tk-) cells. […] Protein concentration was measured by the Bradford method (Bradford, 1976) using Bio-Rad Reagent, with bovine serum albumin as a standard. […]
Binding data were analyzed using nonlinear regression and statistical techniques available in the GraphPAD Prism package (San Diego, Calif.). […]

The chains behind the UniProt entries cited, without tags or fusion partners. Residues count along the entry.
UniProt O60755, whole entry: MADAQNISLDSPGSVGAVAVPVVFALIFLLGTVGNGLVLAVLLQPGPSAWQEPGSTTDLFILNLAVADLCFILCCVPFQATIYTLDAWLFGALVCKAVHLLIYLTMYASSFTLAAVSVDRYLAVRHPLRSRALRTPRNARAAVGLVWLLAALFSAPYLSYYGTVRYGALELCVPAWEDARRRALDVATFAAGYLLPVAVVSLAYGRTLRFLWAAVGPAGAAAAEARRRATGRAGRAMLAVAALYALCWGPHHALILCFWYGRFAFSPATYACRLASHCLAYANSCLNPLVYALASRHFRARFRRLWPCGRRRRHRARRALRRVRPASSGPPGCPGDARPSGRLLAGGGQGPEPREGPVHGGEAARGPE
UniProt Q63380, 1-617: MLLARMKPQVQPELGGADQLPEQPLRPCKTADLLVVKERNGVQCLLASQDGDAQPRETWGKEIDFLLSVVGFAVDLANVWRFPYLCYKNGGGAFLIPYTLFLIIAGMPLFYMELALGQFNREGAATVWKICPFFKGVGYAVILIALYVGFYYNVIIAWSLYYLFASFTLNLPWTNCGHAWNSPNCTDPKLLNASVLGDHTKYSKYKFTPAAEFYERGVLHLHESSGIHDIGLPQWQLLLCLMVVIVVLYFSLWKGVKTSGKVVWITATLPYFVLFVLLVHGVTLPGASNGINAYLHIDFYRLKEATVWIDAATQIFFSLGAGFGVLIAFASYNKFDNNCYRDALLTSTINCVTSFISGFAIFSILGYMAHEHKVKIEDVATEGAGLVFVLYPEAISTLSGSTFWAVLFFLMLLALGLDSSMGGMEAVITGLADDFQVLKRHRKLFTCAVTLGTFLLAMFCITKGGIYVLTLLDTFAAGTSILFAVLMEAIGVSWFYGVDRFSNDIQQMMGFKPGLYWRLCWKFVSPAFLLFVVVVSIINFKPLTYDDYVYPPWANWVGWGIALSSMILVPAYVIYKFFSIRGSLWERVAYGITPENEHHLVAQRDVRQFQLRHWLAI

Male Sprague-Dawley rats = test: Rat Forced Swim Test (FST); details: for Climbing / Diving / Immobility / Swimming: single administration 1 hr before 5 min test
NE transporter = NE transporter (Rattus norvegicus, UniProt Q63380); test: Binding at native NE transporter; details: read-out: rNE Uptk Ki
Experimental: The methods to determine binding affinity at native transporters are described in the following publications: 5HT transporter and NE transporter (Owens et al., 1997), and DA transporter (Javitch et al, 1984).
Binding data were analyzed using nonlinear regression and statistical techniques available in the GraphPAD Prism package (San Diego, Calif.). Enzymatic assay data were derived from a standard curve of reference compound data.

COC[C@@H]1[C@@H](c2ccccc2)OCCN1c1nc(Nc2ccc(C)cc2)cc(N2CCCCC2)n1
selectivity ratio hGAL3 (human GAL3 receptor; Table 8): 1
selectivity ratio hGAL3 (human GAL3 receptor; Table 10): 1
Climbing (Male Sprague-Dawley rats; 3 mg/kg p.o.): no significant difference in the number of climbing counts
Diving (Male Sprague-Dawley rats; 3 mg/kg p.o.): not significantly altered
Immobility (Male Sprague-Dawley rats; 3 mg/kg p.o.): did not significantly alter immobility
Swimming (Male Sprague-Dawley rats; 3 mg/kg p.o.): did not significantly alter swimming behavior
Climbing (Male Sprague-Dawley rats; 10 mg/kg p.o.): no significant difference in the number of climbing counts
Diving (Male Sprague-Dawley rats; 10 mg/kg p.o.): not significantly altered
Immobility (Male Sprague-Dawley rats; 10 mg/kg p.o.): did not significantly alter immobility
Swimming (Male Sprague-Dawley rats; 10 mg/kg p.o.): did not significantly alter swimming behavior
Diving (Male Sprague-Dawley rats; 10 mg/kg p.o., listed as EX49): 0.0 ± 0.0 counts
Climbing (Male Sprague-Dawley rats; 30 mg/kg p.o.): no significant difference in the number of climbing counts
Diving (Male Sprague-Dawley rats; 30 mg/kg p.o.): not significantly altered
Immobility (Male Sprague-Dawley rats; 30 mg/kg p.o.): significant decrease in immobility
Swimming (Male Sprague-Dawley rats; 30 mg/kg p.o.): significantly greater increase in swimming behavior
overall profile in the Forced Swim Test (conclusion in words) (Male Sprague-Dawley rats; rat, in vivo): may have antidepressant-like properties in this model
Ki (NE transporter): 37.6 µM
